From patent publication US8846044B2, “Stabilizing alkylglycoside compositions and methods thereof” (Aegis Therapeutics, LLC, priority 2006, dated 2014) come the findings set out here.

Data set [1] can be described thus: Light scatter of beta interferons, Pramlintide and calcitonin with and without dodecyl maltoside. Conditions: 37° C., 150 RPM.
For data set [2] the following is noted: agitation at 150 RPM.

Take Calcitonin: the “Stabilization by 0.2% Dodecyl maltoside, in words” value in data set [1] (38 day test period, light scatter at 500 nm) is “stable either in the presence or absence of excipient”.
With PTH 1-34, in data set [2], the “Stability against aggregation at 37° C. compared with 40° C. (FIG. 12)” value is “significantly more stable”.
Pramlintide®: in data set [1] (light scatter), the “Stabilization in the presence of 0.2% Dodecyl maltoside” value is on record as “approx. 5 fold”.
